Literature values, collected in US7534424B2, “Method of enhancing delivery of a therapeutic nucleic acid” (Biogen Idec MA Inc., priority 2001, dated 2009).

Details: literature (Joklik 1991)

Substance: human IFN-β: human interferon-beta, the transgene product
- cross-species activity in mice: does not have detectable cross-species activity
